The values that follow come from article PMC2680354 (Molecular cell, 2008).

Assay [1] has as its target Arp2/3 complex. The assay can be described thus: fluorescence polarisation. On the technique in general: Fluorescence polarisation rises when a labelled molecule tumbles more slowly, as on binding a larger partner.
The target in assay [2] is Arp2/3 complex. The assay can be described thus: AUC.

B1: GST-WAVE1 VCA (other)
chain: MSPILGYWKIKGLVQPTRLLLEYLEEKYEEHLYERDEGDKWRNKKFELGLEFPNLPYYIDGDVKLTQSMAIIRYIADKHNMLGGCPKERAEISMLEGAVLDIRYGVSRIAYSKDFETLKVDFLSKLPEMLKMFEDRLCHKTYLNGDHVTHPDFMLYDALDVVLYMDPMCLDAFPKLVCFKKRIEAIPQIDKYLKSSKYIAWPLQGWQATFGGGDHPPKKRHPSTLPVISDARSVLLEAIRKGIQLRKVEEQREQEAKHERIENDVATILSRRIAVEYSDSEDDSEFDEVDWLE
Take B1: in assay [1], the “fold increase in affinity of the GST-VCA dimer over the VCA monomer” value is 150 fold.

B2: GST-WASP VCA (other)
chain: MSPILGYWKIKGLVQPTRLLLEYLEEKYEEHLYERDEGDKWRNKKFELGLEFPNLPYYIDGDVKLTQSMAIIRYIADKHNMLGGCPKERAEISMLEGAVLDIRYGVSRIAYSKDFETLKVDFLSKLPEMLKMFEDRLCHKTYLNGDHVTHPDFMLYDALDVVLYMDPMCLDAFPKLVCFKKRIEAIPQIDKYLKSSKYIAWPLQGWQATFGGGDHPPKGGRGALLDQIRQGIQLNKTPGAPESSALQPPPQSSEGLVGALMHVMQKRSRAIHSSDEGEDQAGDEDEDDEWDD
Turning to B2, the “stoichiometry N” value in assay [2] is 2 GST-WASP VCA chains per Arp2/3 complex. Moreover, in assay [1], the “fold increase in affinity of the GST-VCA dimer over the VCA monomer” value was determined as 100 fold.
